Experimental data reported in BindingDB's records for doi:10.1016/s0024-3205(03)00272-8 (Merck Research Laboratories, 2003).

Amino acid sequences for entries named in this document (tags omitted).
UniProt P31424, whole entry: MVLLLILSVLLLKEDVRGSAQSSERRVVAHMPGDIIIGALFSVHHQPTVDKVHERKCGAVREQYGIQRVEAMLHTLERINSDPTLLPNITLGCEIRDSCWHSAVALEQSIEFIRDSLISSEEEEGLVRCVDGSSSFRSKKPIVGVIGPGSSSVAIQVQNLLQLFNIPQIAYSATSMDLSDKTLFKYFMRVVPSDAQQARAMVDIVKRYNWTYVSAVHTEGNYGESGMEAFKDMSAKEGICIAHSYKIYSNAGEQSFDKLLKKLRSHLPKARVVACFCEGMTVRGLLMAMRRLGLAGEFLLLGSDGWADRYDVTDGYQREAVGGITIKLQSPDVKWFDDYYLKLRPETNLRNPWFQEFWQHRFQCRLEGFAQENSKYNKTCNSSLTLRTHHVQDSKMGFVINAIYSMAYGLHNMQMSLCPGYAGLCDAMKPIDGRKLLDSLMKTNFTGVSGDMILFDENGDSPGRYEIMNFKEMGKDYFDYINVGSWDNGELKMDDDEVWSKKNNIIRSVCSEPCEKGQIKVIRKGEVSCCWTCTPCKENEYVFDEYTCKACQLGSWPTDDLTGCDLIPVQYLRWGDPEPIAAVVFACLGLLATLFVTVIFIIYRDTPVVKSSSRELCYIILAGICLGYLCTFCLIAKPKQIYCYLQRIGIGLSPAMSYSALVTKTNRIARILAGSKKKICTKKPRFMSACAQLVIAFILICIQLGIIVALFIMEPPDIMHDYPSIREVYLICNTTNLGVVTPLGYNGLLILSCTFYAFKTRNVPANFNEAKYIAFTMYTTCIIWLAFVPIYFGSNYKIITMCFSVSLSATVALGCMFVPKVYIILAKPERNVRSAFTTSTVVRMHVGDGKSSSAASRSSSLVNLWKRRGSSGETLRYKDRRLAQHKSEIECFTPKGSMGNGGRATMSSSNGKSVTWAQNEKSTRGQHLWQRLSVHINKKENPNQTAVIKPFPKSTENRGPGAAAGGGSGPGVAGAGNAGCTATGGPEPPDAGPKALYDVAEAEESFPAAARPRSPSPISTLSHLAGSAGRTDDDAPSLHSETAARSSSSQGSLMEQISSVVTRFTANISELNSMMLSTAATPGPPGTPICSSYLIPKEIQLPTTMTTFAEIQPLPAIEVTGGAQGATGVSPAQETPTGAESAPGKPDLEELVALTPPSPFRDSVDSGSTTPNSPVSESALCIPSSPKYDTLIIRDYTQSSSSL

Target: Metabotropic glutamate receptor 5 (Rattus norvegicus, UniProt P31424)

Ki: 0.3 nM
Structure (SMILES): Cc1cccc(C#Cc2ccccc2)n1 [2-Methyl-6-phenylethynyl-pyridine]
